The values that follow are results of earlier work, collected in US20140088058A1 (PARTHENOGEN SAGL, priority 2011, published 2014).

As usually defined, the half-life is how long it takes for the measured level to halve.

The conditions of the data set: in vivo.

As to “LH: Luteinising Hormone released by the pituitary gland”, the half-life result was “about 2 hours”.

For “hCG: human Chorionic Gonadotrophin, placental hormone with structure similar to LH”, the half-life was roughly 72 h.
